# Reference: patent US4710578A, “Isothiuronium salts” (Peremartoni Vegyipari Vallalat, priority 1984, dated 1987)
# Tested on: Lewis long tumor
# Settings: mouse, in vivo
row,Compound,Effective dose in Lewis long tumor relative to LD50
1,N-Aminoiminomethyl-S-(1-Chloro-2-Hydroxy-Propyl)-Isothiuronium Bromide [Example 14],effective in a dose lower than one-tenth of the LD50 value
2,"C=CCSC(=N)NC(=N)N [Example 11, N-Aminoiminomethyl-S-Allyl-Isothiuronium Bromide]",effective in a dose lower than one-tenth of the LD50 value
3,"N=C(N)NC(=N)SCCCCl [Example 15, N-Aminoiminomethyl-S-(3-Chloropropyl)-Isothiuronium Bromide]",effective in a dose lower than one-tenth of the LD50 value
4,"C=CCN=C(NC(=N)N)SCC=C [Example 45, N-(Aminoiminomethyl)-N'-Allyl-S-Allyl-Isothiuronium Bromide]",effective in a dose lower than one-tenth of the LD50 value
5,"N=C(N)NC(=N)SCCCBr [Example 28, N-aminoiminomethyl-S-(3-bromo-propyl)-isothiuronium bromide]",effective in a dose lower than one-tenth of the LD50 value
6,"C=CCSC(=NC1CCCCC1)NC(=N)N [Example 22, N-Aminoiminomethyl-N'-Cyclohexyl-S-Allyl-Isothiuronium Chloride]",effective in a dose lower than one-tenth of the LD50 value
